Earlier results in patent US11752158B2, “Method of treating vitamin D insufficiency and deficiency” (priority 2007, dated 2023).

Details: other reports; =3800 IU; cited from earlier work

vitamin D
lowest dose at which an adverse effect is observed: 95 µg/day
